Here are results for one molecule from publication PMC6523382 (Pharmaceutics, 2019).

The term IC50 denotes the midpoint of a concentration-inhibition curve. Low values mean higher potency, high ones lower potency.

This test has as its target T1, MATE1 (Homo sapiens, UniProt Q96FL8).
T1 sequence (Q96FL8 1-570): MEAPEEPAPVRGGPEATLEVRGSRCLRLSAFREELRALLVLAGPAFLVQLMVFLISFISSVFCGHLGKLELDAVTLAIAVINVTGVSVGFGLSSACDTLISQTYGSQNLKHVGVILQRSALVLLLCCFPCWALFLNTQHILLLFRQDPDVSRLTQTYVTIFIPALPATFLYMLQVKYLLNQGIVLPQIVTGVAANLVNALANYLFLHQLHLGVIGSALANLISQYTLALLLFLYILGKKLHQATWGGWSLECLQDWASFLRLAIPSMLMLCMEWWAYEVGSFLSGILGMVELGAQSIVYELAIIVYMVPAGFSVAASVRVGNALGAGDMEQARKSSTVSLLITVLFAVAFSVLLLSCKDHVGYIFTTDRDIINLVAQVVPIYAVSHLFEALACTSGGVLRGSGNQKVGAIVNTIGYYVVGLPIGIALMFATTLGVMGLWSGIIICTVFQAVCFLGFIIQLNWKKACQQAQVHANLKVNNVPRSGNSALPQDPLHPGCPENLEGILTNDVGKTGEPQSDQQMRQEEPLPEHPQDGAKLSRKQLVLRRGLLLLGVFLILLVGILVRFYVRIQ
Description: Inhibition of MATE1-mediated [14C]metformin uptake in HEK293-MATE1 cells. Format: cell-based. On the set-up: host or cells: HEK293. The method, then:
HEK293 cells overexpressing OCT1, OCT2, MATE1, and MATE2-K (HEK293-OCT1, -OCT2, MATE1, and MATE2-K, respectively; Corning, Tewksbury, MA, USA) were used and characterized as previously described. […] In HEK293-MATE1 or -MATE2-K cells, 2 mM sodium butyrate was also supplemented in the culture medium. […] Sigma, St. Louis, MO, USA) and incubated for 30 min in HBSS. In HEK293-MATE1, or -MATE2-K cells, 40 mM ammonium chloride was also added for the outwardly directed proton gradient. […] After the 5 min incubation, cells were washed three times with 200 µL of ice-cold HBSS immediately after placing the plates on ice. Then, the cells were lysed with 10% sodium dodecyl sulfate (SDS) and the cell lysates were mixed with Optiphase cocktail solution. Thereafter, the radioactivity of the cell lysates was measured using a liquid scintillation counter (Microbeta 2, Perkin Elmer Inc., Boston, MA, USA).

Turning to `CN/C(=N/CCSCc1nc[nH]c1C)NC#N` [cimetidine], the IC50 was determined as 0.55 µM.
